# Laboratory results from PubChem BioAssay AID652105 (National Center for Advancing Translational Sciences (NCATS), 2013).
# Protein sequences, listed by entry. Tags and fused reporters are not part of them.
# UniProt P48426, whole entry: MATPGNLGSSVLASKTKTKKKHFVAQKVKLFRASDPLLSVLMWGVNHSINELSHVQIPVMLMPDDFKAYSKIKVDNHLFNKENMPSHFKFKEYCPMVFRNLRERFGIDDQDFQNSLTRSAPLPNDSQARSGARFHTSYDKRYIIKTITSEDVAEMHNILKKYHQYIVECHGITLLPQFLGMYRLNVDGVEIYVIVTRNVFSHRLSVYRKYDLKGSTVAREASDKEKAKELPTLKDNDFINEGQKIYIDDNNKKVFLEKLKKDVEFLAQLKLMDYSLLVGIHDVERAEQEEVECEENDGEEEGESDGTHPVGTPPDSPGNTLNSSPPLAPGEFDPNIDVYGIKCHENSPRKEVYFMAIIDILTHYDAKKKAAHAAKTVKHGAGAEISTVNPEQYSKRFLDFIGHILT
# This is a selection; strong and weak results do not stand in their true shares. The source made the active and inactive calls. Rule for the calls: active = max response of -50% or lower; inconclusive = between -30% and -50%; inactive = -30% or higher.
# Target: Phosphatidylinositol 5-phosphate 4-kinase type-2 alpha (Homo sapiens) (UniProt P48426)
# Experiment: qHTS for Inhibitors of phosphatidylinositol 5-phosphate 4-kinase (PI5P4K); note: value at the top dose of about 77 µM
# Details: PI5P4Kalpha enzyme, ADP-Glo luminescence, 60 min; stronger effect = lower value
# Description: In addition to finding PI5P, we discovered the type II phosphatidylinositol 5-phosphate 4-kinase (PI5P4K) family (alpha, beta, gamma isoforms) that catalyze the conversion of PI5P to PI(4,5)P2. Alternatively, PI(4,5)P2 can also be synthesized through phosphatidylinositol-4-phosphate (PI4P) by the type I phosphatidylinositol 4-phosphate 5-kinases (PI4P5K). These PI5P4K enzymes therefore represent one way by which cells can regulate endogenous PI5P levels and play important roles in insulin signaling and in stress responses.
# This proposal aims to identify and optimize specific modulators of human PI5P4K, phosphatidylinositol-5-phosphate 4-kinase (Type II PIPK), a family of kinases that regulate AKT signaling and tumor cell growth. In this project we aim to identify inhibitors of human PI5P4K using a quantitative high-throughput screening approach against the MLSMR containing ~400,000 small molecules.
# NIH Chemical Genomics Center [NCGC]
# NIH Molecular Libraries Probe Centers Network [MLPCN]
# Assay Submitter (PI): Atsuo Sasaki, Beth Israel Deaconess Medical Center
# 2 microL of PI5P4Kalpha/substrate buffer (columns 1-2, 5-48) are dispensed into Greiner white solid bottom 1536-well assay plates; column 3 receives only PI5P4Kalpha buffer as 0x substrate controls; column 4 receives only substrate buffer as 0x PI5P4Kalpha controls. Final assay buffer consists of 0.038 M HEPES pH 7.4, 0.28 mM EGTA, 0.1% CHAPS, and 5% DMSO (final concentration). Compounds are then transferred via Kalypsys pin tool equipped with 1536-pin array (10 nL slotted pins, V&P Scientific, San Diego, CA). Following addition of compound, 1 microL of ATP (5 microM final concentration, all columns) is added to initiate the reaction. ATP is diluted in an assay buffer consisting of 0.02 M HEPES pH 7.4, 60 mM MgCl2, 15 microM ATP, and 0.1% CHAPS. The plates are then incubated at room temperature for 60 minutes. ADP-Glo reagent 1 is added (2 microL) and plates incubated for 45 minutes, before ADP-Glo reagent 2 (4 microL) is added and plates incubated for 30 minutes. They are then transferred to a ViewLux high-throughput CCD imager (PerkinElmer) wherein single end-point measurements of luminescence are acquired using a clear filter.
# % is set by controls: 0 for no effect and ±100 for the full control effect.
row,SMILES,max response
1,O=[N+]([O-])c1cc([N+](=O)[O-])c(NCC2CCS(=O)(=O)C2)c([N+](=O)[O-])c1 (stereo not drawn),inactive: 1.84%
2,O=C(NCC1(N2CCCCC2)CCCCC1)c1cccc(C(F)(F)F)c1,inactive: 8.03%
3,O=c1[nH]c2ccccc2n1C1CCN(C(c2ccccc2OC(F)(F)F)c2nnnn2C2CCCC2)CC1 (stereo not drawn),inactive: 4.39%
4,N#CC1(Nc2ccccc2)CCN(CCc2ccccc2)CC1,inactive: -3.23%
5,CCN1CCC(Nc2ccc(Cl)cc2)CC1,inactive: -3.98%
6,CSc1ccc(C(=O)NCC2(N3CCOCC3)CCCCC2)cc1,inactive: 1.21%
7,O=C(NCC1(N2CCCCC2)CCCCC1)c1cccc([N+](=O)[O-])c1,inactive: 0.341%
8,O=C(NCC1(N2CCCCC2)CCCCC1)c1ccc(OC(F)F)cc1,inactive: -8.08%
9,CC(C)(C)n1nnnc1C(c1ccccc1OC(F)(F)F)N1CCC(n2c(=O)[nH]c3ccccc32)CC1 (stereo not drawn),inactive: 1.29%
10,CCOC(=O)N1CCC(Nc2cccc(C)c2)CC1,inactive: 1.35%
11,COc1cc(C(=O)NCC2(N(C)C)CCCCC2)ccc1OC(F)F,inactive: 0.938%
12,O=c1[nH]c2ccccc2n1C1CCN(C(c2cccc3ccccc23)c2nnnn2C2CCCC2)CC1 (stereo not drawn),inactive: -1.33%
13,O=c1[nH]c2ccccc2n1C1CCN(C(c2ccccc2)c2nnnn2C2CCCCC2)CC1 (stereo not drawn),inactive: -1.35%
14,CCOC(=O)N1CCC(Nc2ccc(F)cc2)CC1,inactive: 0.556%
15,CCCCOc1ccc(C(=O)NCC2(N3CCOCC3)CCCCC2)cc1,inactive: -2.68%
16,O=P1(N(CCCl)CCCl)SCCCS1,inactive: -1.87%
17,CCCCn1nnnc1C(c1cc2ccccc2o1)N1CCC(n2c(=O)[nH]c3ccccc32)CC1 (stereo not drawn),inactive: 3.49%
18,O=C(NCC1(N2CCCCC2)CCCCC1)c1ccc(F)cc1,inactive: -0.0912%
19,O=C1CCN(Cc2ccccc2)CC1,inactive: -11.8%
20,CC(C)(C)n1nnnc1C(c1ccccc1)N1CCC(n2c(=O)[nH]c3ccccc32)CC1 (stereo not drawn),inactive: -3.9%
21,CCOc1ccc(C)cc1CN(CCCl)CCCl,inactive: 2.47%
22,COc1ccc(Cl)cc1C(=O)NCC1(N2CCOCC2)CCCCC1,inactive: 2.44%
23,O=C1C(O)=C([N+](=O)[O-])C(=O)C(O)=C1[N+](=O)[O-],active: -76%
24,N#CC1(Nc2ccccc2)CCN(Cc2ccccc2)CC1,inactive: -0.245%

row,SMILES,max response
1,O=C(NCC1(N2CCCCC2)CCCCC1)c1ccc(Cl)s1,inactive: -2.6%
2,O=c1[nH]c2ccccc2n1C1CCN(C(c2cc3ccccc3o2)c2nnnn2C2CCCCC2)CC1 (stereo not drawn),inactive: 3.88%
3,O=C(OC1CN2CCC1CC2)C1c2ccccc2Oc2ccccc21 (stereo not drawn),inactive: -5.92%
4,CCCCn1nnnc1C(c1ccc(OC)cc1)N1CCC(n2c(=O)[nH]c3ccccc32)CC1 (stereo not drawn),inactive: -0.736%
5,CCOC(=O)N1CCC(Nc2ccc(OC)cc2)CC1,inactive: -1.97%
6,Cc1cc(C)cc(N(C(=O)c2ccccc2)C2CCN(C(=O)OC(C)(C)C)CC2)c1,inactive: -2.55%
7,O=C(NCC1(N2CCCCC2)CCCCC1)c1ccc(Cl)nc1,inactive: 5.59%
8,O=c1[nH]c2ccccc2n1C1CCN(C(c2ccccc2OC(F)(F)F)c2nnnn2C2CCCCC2)CC1 (stereo not drawn),inactive: 1.58%
9,O=C(NCC1(N2CCOCC2)CCCCC1)c1cc2ccccc2o1,inactive: -11.8%
10,Cc1cccc(NC2(C#N)CCN(Cc3ccccc3)CC2)c1,inactive: -1.25%
11,CSc1ccccc1C(=O)NCC1(N2CCCCC2)CCCCC1,inactive: -0.621%
12,COc1ccc(C(=O)NCC2(N3CCCCC3)CCCCC2)c(OC)c1OC,inactive: 2.73%
13,CC(C)(C)OC(=O)N1CCC(N(C(=O)c2ccccc2)c2ccc(F)cc2)CC1,inactive: 0.0607%
14,CCC(c1nnnn1C1CCCC1)N1CCC(n2c(=O)[nH]c3ccccc32)CC1 (stereo not drawn),inactive: 3.51%
15,COc1ccc(C(=O)NCC2(N3CCCCC3)CCCCC2)cc1,inactive: -3.75%
16,CCCCn1nnnc1C(CC)N1CCC(n2c(=O)[nH]c3ccccc32)CC1 (stereo not drawn),inactive: -4.25%
17,O=C(NCC1(N2CCCCC2)CCCCC1)c1cccs1,inactive: 0.414%
18,CCCCn1nnnc1C(c1cccs1)N1CCC(n2c(=O)[nH]c3ccccc32)CC1 (stereo not drawn),inactive: 2.51%
19,O=C(NCC1(N2CCCCC2)CCCCC1)c1ccc(=O)[nH]c1,inactive: 4.75%
20,CN1CCC(Nc2ccc(Cl)cc2)CC1,inactive: -0.356%
21,COc1cccc(C(=O)N(c2cc(C)cc(C)c2)C2CCN(C(=O)OC(C)(C)C)CC2)c1,inactive: -1.02%
22,COc1cccc(C(c2nnnn2C2CCCC2)N2CCC(n3c(=O)[nH]c4ccccc43)CC2)c1OC (stereo not drawn),inactive: 4.12%
23,COc1cc(OC)cc(C(=O)NCC2(N3CCOCC3)CCCCC2)c1,inactive: 6.51%
24,CCC(CO)(C(=O)OC1CN2CCC1CC2)c1ccccc1 (stereo not drawn),inactive: 1.5%

row,SMILES,max response
1,NN(c1ccccc1)C1CCN(CCc2ccccc2)CC1,inactive: 3.61%
2,O=C(O)C1(Nc2ccccc2)CCN(Cc2ccccc2)CC1,inactive: -2.31%
3,CC(C)(C)OC(=O)N1CCC(Nc2ccccc2)CC1,inactive: -4.4%
4,O=c1[nH]c2ccccc2n1C1CCN(C(c2cc3ccccc3o2)c2nnnn2C2CCCC2)CC1 (stereo not drawn),inactive: -0.141%
5,CCCOc1ccc(C(=O)NCC2(N(C)C)CCCCC2)cc1,inactive: 1.25%
6,CN1CCC(Nc2ccc(F)c(Cl)c2)CC1,inactive: 1.1%
7,CCOc1ncccc1C(=O)NCC1(N2CCOCC2)CCCCC1,inactive: -9.59%
8,CN(C)c1ccc(C(=O)NCC2(N3CCCCC3)CCCCC2)cc1,inactive: 1.56%
9,Cn1c(=O)[nH]cc(N(CCCl)CCCl)c1=O,inactive: -1.83%
10,O=C(NCC1(N2CCCCC2)CCCCC1)c1ccco1,inactive: -2.45%
11,COc1ccc(C(c2nnnn2C2CCCCC2)N2CCC(n3c(=O)[nH]c4ccccc43)CC2)cc1 (stereo not drawn),inactive: -11.9%
12,CCN1CCC(Nc2cccc(F)c2)CC1,inactive: 1.86%
13,CC(C)(C)n1nnnc1C(c1ccnc2ccccc12)N1CCC(n2c(=O)[nH]c3ccccc32)CC1 (stereo not drawn),inactive: -0.748%
14,Cc1ccccc1NC1(C#N)CCN(Cc2ccccc2)CC1,inactive: -8.84%
15,Cc1ccc(Nc2c([N+](=O)[O-])cc([N+](=O)[O-])cc2[N+](=O)[O-])cc1,inactive: -7.24%
16,Cc1ccc(C(=O)NCC2(N3CCCCC3)CCCCC2)o1,inactive: 4.29%
17,Cc1ccc(NC2(C#N)CCN(Cc3ccccc3)CC2)cc1,inactive: 5.7%
18,CCC(c1nnnn1C1CCCCC1)N1CCC(n2c(=O)[nH]c3ccccc32)CC1 (stereo not drawn),inactive: 3.87%
19,COc1cccc(C(c2nnnn2C2CCCCC2)N2CCC(n3c(=O)[nH]c4ccccc43)CC2)c1OC (stereo not drawn),inactive: 3.41%
20,CC(=O)N(c1ccccc1)C1CCNCC1,inactive: -1.92%
21,COc1cc(OC)cc(C(=O)NCC2(N3CCCCC3)CCCCC2)c1,inactive: -2.29%
22,O=c1[nH]c2ccccc2n1C1CCN(C(c2ccnc3ccccc23)c2nnnn2C2CCCCC2)CC1 (stereo not drawn),inactive: -0.834%
23,CC(C)(C)n1nnnc1C(c1cccc2ccccc12)N1CCC(n2c(=O)[nH]c3ccccc32)CC1 (stereo not drawn),inactive: -0.572%
24,CN(C)C1(CNC(=O)c2cccc(C#N)c2)CCCCC1,inactive: 2.42%

row,SMILES,max response
1,O=c1[nH]c2ccccc2n1C1CCN(C(c2ccccc2)c2nnnn2C2CCCC2)CC1 (stereo not drawn),inactive: -0.334%
2,CCCN1CCC(Nc2cc(OC)cc(OC)c2)CC1,inactive: 2.76%
3,Cc1cc(N(CCCl)CCCl)ccc1C=O,inactive: -0.645%
4,c1ccc(CN2CCC(Nc3ccccc3)CC2)cc1,inactive: -3.04%
5,CCOC(=O)C(CC)C1=NC(C)(C)Cc2ccccc21.O=[N+]([O-])c1cc([N+](=O)[O-])c(O)c([N+](=O)[O-])c1 (stereo not drawn),inactive: -19.5%
6,N#Cc1ccc(C(=O)NCC2(N3CCCCC3)CCCCC2)cc1,inactive: 5.1%
7,CC(C)(C)OC(=O)N1CCC(N(C(=O)c2ccccc2)c2ccc(Cl)cc2)CC1,inactive: 9.56%
8,O=C(O)c1cccc(Nc2c([N+](=O)[O-])cc([N+](=O)[O-])cc2[N+](=O)[O-])c1,inactive: -7.04%
9,O=c1[nH]c2ccccc2n1C1CCN(C(c2cccs2)c2nnnn2C2CCCC2)CC1 (stereo not drawn),inactive: -1.51%
10,CCc1cc(C(=O)NCC2(N3CCCCC3)CCCCC2)sc1C,inactive: -4.47%
11,O=C(OC1CN2CCC1CC2)C1c2ccccc2C=Cc2ccccc21 (stereo not drawn),inactive: 2.71%
12,CCCCn1nnnc1C(c1cccc(OC)c1OC)N1CCC(n2c(=O)[nH]c3ccccc32)CC1 (stereo not drawn),inactive: 4.34%
13,CCOC(=O)N1CCC(Nc2ccc(C)cc2)CC1,inactive: 0%
14,COc1cccc(C(c2nnnn2C(C)(C)C)N2CCC(n3c(=O)[nH]c4ccccc43)CC2)c1OC (stereo not drawn),inactive: -3.08%
15,N/C(=N\O)c1c(N)no[n+]1[O-],inactive: -6.33%
16,O=c1[nH]c2ccccc2n1C1CCN(C(c2cccs2)c2nnnn2C2CCCCC2)CC1 (stereo not drawn),inactive: 2.5%
17,O=c1[nH]c2ccccc2n1C1CCN(C(c2ccnc3ccccc23)c2nnnn2C2CCCC2)CC1 (stereo not drawn),inactive: -4.41%
18,COc1ccc(C(=O)NCC2(N3CCOCC3)CCCCC2)cc1OC,inactive: 3.65%
19,COc1cc(C(=O)NCC2(N3CCOCC3)CCCCC2)cc(OC)c1C,inactive: -2.31%
20,CCCCn1nnnc1C(c1ccccc1)N1CCC(n2c(=O)[nH]c3ccccc32)CC1 (stereo not drawn),inactive: -1.4%
21,O=C(NCC1(N2CCOCC2)CCCCC1)c1cc(Br)ccc1Cl,inactive: 3.98%
